Source: US20230057847A1, “GLP2 RECEPTOR AGONISTS AND METHODS OF USE” (The Scripps Research Institute, priority 2019, published 2023)

How the values were obtained:
mouse GLP2R = target: T1, mouse GLP2R (Mus musculus, UniProt Q5IXF8); assay: In vitro potency on mouse GLP2R (cAMP, 665/615 ratio); format: cell-based; details: read-out: mGLP-2R IC50
T1 sequence (Q5IXF8 1-512): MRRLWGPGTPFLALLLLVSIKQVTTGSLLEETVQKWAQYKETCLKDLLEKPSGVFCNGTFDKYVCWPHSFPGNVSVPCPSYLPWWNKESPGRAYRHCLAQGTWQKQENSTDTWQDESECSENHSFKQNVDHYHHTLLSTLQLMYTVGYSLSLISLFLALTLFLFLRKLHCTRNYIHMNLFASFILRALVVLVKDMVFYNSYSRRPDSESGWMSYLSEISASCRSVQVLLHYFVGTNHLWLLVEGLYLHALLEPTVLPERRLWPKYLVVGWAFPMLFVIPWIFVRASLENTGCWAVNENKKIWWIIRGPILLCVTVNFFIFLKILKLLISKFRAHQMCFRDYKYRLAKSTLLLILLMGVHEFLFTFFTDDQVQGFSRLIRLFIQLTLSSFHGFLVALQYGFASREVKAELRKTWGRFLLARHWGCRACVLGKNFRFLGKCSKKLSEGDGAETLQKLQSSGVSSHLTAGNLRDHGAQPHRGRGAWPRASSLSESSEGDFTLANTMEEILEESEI

[1] = comparison value; cited from earlier work
[2] = comparison value; cited from earlier work; remark: listed apart in the source

Row | Substance | IC50 (mouse GLP2R) | half-life in rodents [1] | half-life in monkey [2]
1 | apraglutide [reference compound] | 0.04 nM | – | –
2 | semaglutide | – | 8 h | approximately 50 hour
